Laboratory results: patent publication US20060079566A1, “PDK-1/Akt signaling inhibitors” (priority 2003, published 2006)
Read-outs that look alike come from different tables or passages of the source.

Columns and labels:
recombinant PDK-1 = molecular target: T1, recombinant PDK-1 (Homo sapiens, UniProt O15530); test: PDK-1 kinase activity (Upstate kit, SGK-coupled, cell-free); assay type: biochemical
T1 construct: purchased Upstate (Lake Placid, N.Y.)
T1 sequence (O15530 1-556): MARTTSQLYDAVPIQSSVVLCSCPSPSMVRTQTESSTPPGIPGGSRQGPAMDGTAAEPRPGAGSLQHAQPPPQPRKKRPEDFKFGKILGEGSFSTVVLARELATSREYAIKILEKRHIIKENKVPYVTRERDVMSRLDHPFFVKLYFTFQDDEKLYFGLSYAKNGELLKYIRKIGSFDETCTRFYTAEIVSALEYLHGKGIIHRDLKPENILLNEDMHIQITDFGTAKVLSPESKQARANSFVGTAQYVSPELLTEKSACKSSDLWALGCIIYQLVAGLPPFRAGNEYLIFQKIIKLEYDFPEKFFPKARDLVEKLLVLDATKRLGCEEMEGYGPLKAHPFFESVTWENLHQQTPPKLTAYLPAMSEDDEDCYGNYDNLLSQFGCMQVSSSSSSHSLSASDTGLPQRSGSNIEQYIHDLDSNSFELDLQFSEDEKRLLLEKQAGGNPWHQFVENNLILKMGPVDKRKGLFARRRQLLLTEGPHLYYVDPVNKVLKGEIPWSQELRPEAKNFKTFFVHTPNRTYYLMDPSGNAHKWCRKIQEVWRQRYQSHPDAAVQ

MALNE-3M = test: NCI DTP screen (SRB), Melanoma; assay type: cell-based; settings: Homo sapiens
Procedure: (§1) Screening of compounds 70 and 71 against several cancer cell lines The human tumor cell lines of the cancer screening panel are grown in RPMI 1640 medium containing 5% fetal bovine serum and 2 mM L-glutamine. For a typical screening experiment, cells are inoculated into 96 well microtiter plates in 100 μL at plating densities ranging from 5,000 to 40,000 cells/well depending on the doubling time of individual cell lines. After cell inoculation, the microtiter plates are incubated at 37° C., 5% CO2, 95% air and 100% relative humidity for 24 h prior to addition of experimental drugs. […]
(§2) Following drug addition, the plates are incubated for an additional 48 h at 37° C., 5% CO2, 95% air, and 100% relative humidity. […] Bound stain is subsequently solubilized with 10 mM trizma base, and the absorbance is read on an automated plate reader at a wavelength of 515 nm. […] Using the seven absorbance measurements [time zero, (Tz), control growth, (C), and test growth in the presence of drug at the five concentration levels (Ti)], the percentage growth is calculated at each of the drug concentrations levels. Percentage growth inhibition is calculated as: [(Ti−Tz)/(C−Tz)]×100 for concentrations for which Ti>/=Tz [(Ti−Tz)/Tz]×100 for concentrations for which Ti<Tz
(§3) Three dose response parameters are calculated for each experimental agent. […]

UACC-62 = test: NCI DTP screen (SRB), Melanoma; assay type: cell-based; settings: Homo sapiens
Procedure: as §1, §2, §3

HOP-92 = test: NCI DTP screen (SRB), Non-Small Cell Lung Cancer; assay type: cell-based; settings: Homo sapiens
Procedure: as §1, §2, §3

[1] = inhibiting recombinant PDK-1 kinase activity, read-out: IC50 PDK-1

| SMILES | IC50 (recombinant PDK-1) | IC50 (recombinant PDK-1; [1]) | also measured |
| --- | --- | --- | --- |
| Cc1ccc(-c2ccc(-c3cc(C(F)(F)F)nn3-c3ccc(S(N)(=O)=O)cc3)cc2)cc1 [Compound 50, 4-[5-(4′-methyl[1,1′-biphenyl]4-yl)-3-(trifluoromethyl)-1H-1-yl]benzenesulfonamide] | 15 µM |  |  |
| N=C(Cc1ccc(-n2nc(C(F)(F)F)cc2-c2ccc3c(ccc4ccccc43)c2)cc1)NO [Compound 68, 2-{4-[5-(2-Phenanthrenyl)-3-(trifluoromethyl)-1H-pyrazol-1-y]-phenyl}-N-hydroxy-acetamidine] |  | 15 µM |  |
| NS(=O)(=O)c1ccc(-n2nc(C(F)(F)F)cc2-c2ccc(Cc3ccccc3)cc2)cc1 [Compound 56, 4-[5-(4-(phenylmethyl)phenyl)-3-(trifluoromethyl)-1H-1-yl]benzenesulfonamide] |  | 15 µM |  |
| NS(=O)(=O)c1ccc(-n2nc(C(F)(F)F)cc2-c2ccc3ccccc3c2)cc1 [Compound 43, 4-[5-(2-naphthalenyl)-3-(trifluoromethyl)-1H-pyrazol-1-yl]benzenesulfonamide] | 24 µM |  |  |
| NCC(=O)Nc1ccc(-n2nc(C(F)(F)F)cc2-c2ccc3c(ccc4ccccc43)c2)cc1 [Compound 70, 2-Amino-N-{4-[5-(2-phenanthrenyl)-3-(trifluoromethyl)-1H-pyrazol-1-yl]-phenyl}-acetamide] |  |  | GI50 (MALNE-3M): 1.74 µM; GI50 (UACC-62): 1.53 µM; GI50 (HOP-92): 1.61 µM |
